## Binding of CDR-mutated scFvs to a peptide of the spike HR2 region

Antigen: PDVDLGDISGINAS, a 14-residue peptide of the SARS-CoV-2 spike HR2 region.

The variants keep the heavy chain, the linker and the frameworks of Ab-14 (scFv order VH, the linker GGGGSGGGGSGGGGS, VL).
VH: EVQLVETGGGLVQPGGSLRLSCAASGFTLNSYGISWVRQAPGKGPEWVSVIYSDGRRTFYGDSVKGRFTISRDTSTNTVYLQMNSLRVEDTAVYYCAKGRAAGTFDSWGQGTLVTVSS
VL: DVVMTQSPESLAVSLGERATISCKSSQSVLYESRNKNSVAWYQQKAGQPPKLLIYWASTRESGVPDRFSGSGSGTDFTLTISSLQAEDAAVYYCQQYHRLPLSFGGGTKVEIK

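The variants were designed computationally from a first round of random CDR variants and then made and measured. Several design methods are mixed in this list. In AlphaSeq, yeast of one mating type display the scFv and yeast of the other type display the target. Pairs that bind mate more often; barcode pairs of the diploids are counted by sequencing. Read counts were normalised to the haploid input and turned into Kd by a linear fit to BCL2-family pairs of known affinity, for each replicate. There are six technical replicates.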

Each variant is given by its three light chain CDRs, as the data file delimits them; those of the parent are KSSQSVLYESRNKNSVA, WASTRES, QQYHRLPLS.
The Kd shown is the geometric mean over detected replicates; a lower Kd is a better binder.
An entry "not detected" has no value in the source: the pair was not observed among the diploids in any replicate. This suggests poor binding but is not conclusive.
As a blank, each scFv also met three strains without target: over all light chain designs, 4% of these pairings were detected, typically at 430 nM and seldom below 38 nM. The control count says in how many pairings with the empty strains this scFv gave a signal.
The authors averaged sequences with at least three values out of six and counted those with two or fewer as poor binders.
Of ten entries with the parent sequence, four were seen in most replicates (averages 2.2 nM to 240 nM), three in one and three in none, so single entries are noisy.
A sequence measured in both rounds can read differently, since the two assays cover different ranges.

apparent Kd	detected	control signals	CDR-L1	CDR-L2	CDR-L3
not detected	0 of 6	0 of 18	KSSQSVFYESRNKNSVA	WASTRED	QQYHRLTLS
8.5 nM	6 of 6	1 of 18	MISGVMKSLSAHMNSVA	DMTNREN	QQYDRLPLS
760 pM	6 of 6	1 of 18	KLPQSMEYESRNKNSVA	SASTRES	QQYHRLPLS
3.1 nM	6 of 6	0 of 18	KMSQSVLFEWRNKNSVA	DASTREW	QQYHRLPLS
31 nM	6 of 6	3 of 18	TISGVMNSQSHVKNNVA	EMSTREK	QQYVRLPLA
470 pM	6 of 6	3 of 18	KLSFSVLYESRNKNSVA	NASTRES	QQYHRLPLS
490 nM	4 of 6	0 of 18	MIYGAQRELGLKANSIA	DNVTRYN	QQYDRLPLS
15 nM	5 of 6	0 of 18	KSSQSWLYVSRNKNSVG	GASTREP	QQYHRLPLD
490 pM	6 of 6	1 of 18	KLSNSVWMESRNKNNVA	EASKRES	QQYHRLPLS
82 nM	1 of 6	2 of 18	QLRDAQWAEGMNIQSIA	ENEVSKD	QQYNRLPLS
1.8 nM	6 of 6	1 of 18	KLRQSTLYESRNQNSVA	WASTREV	QQYHRLPLS
1.1 nM	6 of 6	0 of 18	KLSQSMLYESRNKNSVA	EASTRLS	QDYHRLPLS
1.6 nM	6 of 6	0 of 18	KHEEGVLYESRNKNSVA	EGSTRES	QQYHRLPLS
2.8 nM	6 of 6	2 of 18	QIYQAMHTLSQVKDNVA	DVNERGQ	QQYYRLPLS
640 pM	6 of 6	0 of 18	KLQQSQLYESRWQNSVA	QASQREV	QQYHRLPLS
93 nM	1 of 6	0 of 18	KSSQSVLYESRNSNSVA	SASTRED	FQYHRLPLS
57 nM	1 of 6	0 of 18	ILYESVGTLARNKNSVA	DNSTRES	QQYDRLPLS
not detected	0 of 6	0 of 18	MIAQGLRGVGRNKNSVA	NAQTRMS	QHYHRLPLS
10 nM	6 of 6	0 of 18	KLSMLTEMSHVNRNSVA	ELVTRMA	QQYNRLPLS
39 nM	6 of 6	0 of 18	KSMQSVLDESLNKNSVA	WASTRES	QQYHRLPLS
660 pM	6 of 6	2 of 18	KLSQSMLYESRNKNSVA	NASTRLM	QQYHRLPLS
720 pM	6 of 6	1 of 18	KLSQSDLYESRNKNSVA	EASQRES	QQYHRLPLS
78 nM	1 of 6	0 of 18	KSSQSVLYESRNKNSIA	WASTREA	QSYHRLPLS
2.2 nM	6 of 6	0 of 18	KSSQSVIYESRKMNSVA	RASTRES	QQYARLPLS
1.8 nM	6 of 6	0 of 18	KVAQGIFEGKRHSHNIA	EVSHLCD	QQYSRLPLE
110 nM	6 of 6	1 of 18	KSSQRELYESRNKNSVA	WASTRES	QQYHRLPLS
1.0 nM	6 of 6	1 of 18	KIGMQVTYESTNKNAIA	QMTTREE	QQYHRLPLS
12 nM	4 of 6	0 of 18	MINMEIGIEDMKWQAVA	SAHVRAF	QQYGRLPFS
6.4 nM	6 of 6	2 of 18	KQSQSVDYESRNKNSVA	WASTRES	QQYHRLPLS
5.2 nM	6 of 6	0 of 18	RITHNQLDYKNREANIA	HESMRLV	QQYSQLPLT
7.0 nM	6 of 6	0 of 18	KLSQSAPYEDRCFNNVA	HASQRES	QQYHRLPLS
630 nM	4 of 6	2 of 18	KSSQSVLYESRNKNSVA	WASTRNS	QQYHKLPLS
4.0 nM	6 of 6	3 of 18	LISGVWDLGSRNYNSVA	QTSTRES	QQYDRLPLS
8.1 nM	6 of 6	1 of 18	RITPLSDYYNENRNAIA	QTSLKAH	QQYQMLPLT
1.1 nM	6 of 6	0 of 18	KAEQSWLYESRNKNSVA	GASTRES	QQYHRLPLI
68 nM	5 of 6	3 of 18	KLQVSYLFESLEKNSIA	ENSTREK	QHYHRLPLS
980 pM	6 of 6	2 of 18	TISTSMRYESSLKNAIA	NAQTRES	QQYARLPLS
830 pM	6 of 6	0 of 18	KLSQSKLYESRNKNSVA	EASTRES	QQYHRLPLS
560 pM	6 of 6	0 of 18	KFSWSVLFESRNKNSVA	DASTRSS	QQYHRLPLS
3.2 nM	6 of 6	0 of 18	KIGQQVTYESTNKNAIA	QMTTRES	QQYHRLPLS
590 pM	6 of 6	0 of 18	KISQSVLYESRNKNSVA	EASTRCS	QQYHRLPLS
560 pM	6 of 6	0 of 18	KLPQSVWYESRNKNSVA	QASTRES	QQYHRLPLS
420 nM	1 of 6	0 of 18	KSSQSVLYESENSNSVA	WASTRES	QQYHYLPLS
1.4 nM	6 of 6	1 of 18	KFEQGVLYESRNKNSVA	GASTRES	QQYHRLPLS
3.0 nM	6 of 6	0 of 18	TLGDVTRQESNKKSSIA	DMSNRAD	QQYHRLPIS
1.2 nM	6 of 6	1 of 18	KLSQSVLMESRWKNSVA	DASQREE	QQYHRLPLS
5.4 nM	6 of 6	2 of 18	KNSQSVLYESRNKNSVA	GVSTRES	QQYHRLPLS
23 nM	4 of 6	0 of 18	QVMGLNGVAMSTHDSIA	QEETRLD	QQYHRLPLS
1.6 nM	6 of 6	1 of 18	KLEQSNLYESRNKNSVA	NASTRES	QQYHRLPLS
810 pM	6 of 6	1 of 18	KFSQSYLYESRNKNSVA	NASTRES	QQYHRLPLM
1.5 nM	6 of 6	1 of 18	KLTSITGTEKVHGNSVA	EMATREK	QQYNRLPLA
2.1 nM	6 of 6	1 of 18	HLQEQSFVGQKDYSSVA	NTECKYN	QQYARLPLM
500 pM	6 of 6	0 of 18	KLQQSNGYESRNKNSVA	NASTRES	QQYHRLPLS
76 nM	6 of 6	0 of 18	HVSMLTLGGLKNRNSVA	QMTTRVN	QQYDRLPLA
7.9 nM	6 of 6	0 of 18	GILSQMDGISAYKENIA	NEAERLR	QQYQRLPLT
510 pM	6 of 6	1 of 18	KVSQSVLYESRNKNSVA	NASTRES	QQYHRLPLG
1.3 nM	6 of 6	0 of 18	KIGMTLNMMMHKKNNVA	DLVMREQ	QQYHRLPLS
440 nM	6 of 6	1 of 18	KLTKYQYNATSHYQNVA	ESNKIME	QSYYRLPLS
11 nM	6 of 6	1 of 18	KLSMTTEMELKHRNSVA	ELVTRMS	QQYNRLPLS
15 nM	6 of 6	0 of 18	TISQMTSLFSQSINNVA	EVSMREE	QQYDRLPLS
1.7 nM	6 of 6	2 of 18	HITYGMQVAGRHSKSIA	QAEERAK	QQYDRLPLS
940 pM	6 of 6	0 of 18	KFVQSWLYESRNKNNVA	HASTRCS	QQYHRLPLS
1.2 nM	6 of 6	1 of 18	KVSQSNLYESRNKNSVA	NASTRCS	QQYHRLPLS
1.8 nM	6 of 6	1 of 18	KCQQNVLIMGRNKNNVA	EMTTREE	QQYDRLPLS

The measurements come from Li et al. 2023 (doi:10.1038/s41467-023-39022-2) through the FLAb antibody collection.